Test results as given in patent US20230250109A1, “MACROCYCLIC ETHER CONTAINING INDOLE DERIVATIVES AS INHIBITORS OF MCL-1” (Janssen Pharmaceutica NV, priority 2020, published 2023).

The chains behind the UniProt entries cited, without tags or fusion partners.
UniProt Q07820, whole entry: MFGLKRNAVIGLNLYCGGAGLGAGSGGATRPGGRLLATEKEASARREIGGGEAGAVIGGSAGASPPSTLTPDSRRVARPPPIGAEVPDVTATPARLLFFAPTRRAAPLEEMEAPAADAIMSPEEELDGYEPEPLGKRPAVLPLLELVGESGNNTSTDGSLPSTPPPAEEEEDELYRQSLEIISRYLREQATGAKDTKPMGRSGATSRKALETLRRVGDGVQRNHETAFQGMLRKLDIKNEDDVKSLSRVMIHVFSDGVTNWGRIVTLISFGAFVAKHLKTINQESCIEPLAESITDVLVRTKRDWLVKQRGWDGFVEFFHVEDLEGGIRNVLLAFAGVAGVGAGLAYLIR

Assays:
[1] = molecular target: Myeloid Cell Leukemia 1 (Mcl-1) (Homo sapiens, UniProt Q07820); test: Terbium labeled Mcl-1 HTRF binding assay (displacement of Cy5-labeled BIM BH3 peptide); conditions: read-out: Tb-MCL1 Ki, 25 pM Tb-Mcl-1, 8 nM Cy5 Bim peptide, Ki=IC50/(1+[L]/Kd), [L]=8 nM, Kd=10 nM, 60 min at room temperature
Procedure: Terbium labeled Myeloid Cell Leukemia 1 (Mcl-1) homogeneous time-resolved fluorescence (HTRF) binding assay utilizing the BIM BH3 peptide (H2N—(C/Cy5Mal) WIAQELRRIGDEFN-OH) as the binding partner for Mcl-1.
This assay evaluated inhibition of the BH3 domain: Mcl-1 interaction by measuring the displacement of Cy5-labeled BIM BH3 peptide (H2N—(C/Cy5Mal) WIAQELRRIGDEFN-OH) in the HTRF assay format.
The following assay and stock buffers were prepared for use in the assay: (a) Stock buffer: 10 mM Tris-HCl, pH=7.5+150 mM NaCl, filtered, sterilized, and stored at 4° C.; and (b) 1× assay buffer, where the following ingredients were added fresh to stock buffer: 2 mM dithiothreitol (DTT), 0.0025% Tween-20, 0.1 mg/mL bovine serum albumin (BSA). The 1×Tb-Mcl-1+Cy5 Bim peptide solution was prepared by diluting the protein stock solution using the 1×assay buffer (b) to 25 pM Tb-Mcl-1 and 8 nM Cy5 Bim peptide.
Using the Acoustic ECHO, 100 nL of 100×test compound(s) were dispensed into individual wells of a white 384-well Perkin Elmer Proxiplate, for a final compound concentration of 1×and final DMSO concentration of 1%. Inhibitor control and neutral control (NC, 100 nL of 100% DMSO) were stamped into columns 23 and 24 of assay plate, respectively. Into each well of the plate was then dispensed 10 μL of the 1× Tb-Mcl-1+Cy5 Bim peptide solution. The plate was centrifuged with a cover plate at 1000 rpm for 1 minute, then incubated for 60 minutes at room temperature with plates covered. The TR-FRET signal was read on an BMG PHERAStar FSX MicroPlate Reader at room temperature using the HTRF optic module (HTRF: excitation: 337 nm, light source: laser, emission A: 665 nm, emission B: 620 nm, integration start: 60 μs, integration time: 400 μs).
The BMG PHERAStar FSX MicroPlate Reader was used to measure fluorescence intensity at two emission wavelengths—665 nm and 620 nm—and report relative fluorescence units (RFU) for both emissions, as well as a ratio of the emissions (665 nm/620 nm)*10,000. The RFU values were normalized to percent inhibition as follows: […]

[2] = system: MOLP-8 human multiple myeloma cell line; test: Caspase-Glo 3/7 apoptosis induction assay in MOLP-8 cells; conditions: read-out: MOLP8 Caspase-Glo AC50, 2 hours at 37° C., caspase-3/7 luminescence, averaged over all runs on all batches
Text: MCL-1 is a regulator of apoptosis and is highly over-expressed in tumor cells that escape cell death. The assay evaluates the cellular potency of small-molecule compounds targeting regulators of the apoptosis pathway, primarily MCL-1, Bfl-1, Bcl-2, and other proteins of the Bcl-2 family. Protein-protein inhibitors disrupting the interaction of anti-apoptotic regulators with BH3-domain proteins initiate apoptosis.
The Caspase-Glo® 3/7 Assay is a luminescent assay that measures caspase-3 and -7 activities in purified enzyme preparations or cultures of adherent or suspension cells. The assay provides a proluminescent caspase-3/7 substrate, which contains the tetrapeptide sequence DEVD. This substrate is cleaved to release aminoluciferin, a substrate of luciferase used in the production of light. Addition of the single Caspase-Glo® 3/7 Reagent in an “add-mix-measure” format results in cell lysis, followed by caspase cleavage of the substrate and generation of a “glow-type” luminescent signal. This assay uses the MOLP-8 human multiple myeloma cell line, which is sensitive to MCL-1 inhibition.
• Perkin Elmer Envision • Multidrop 384 and small volume dispensing cassettes • Centrifuge • Countess automated cell counter • Countess counting chamber slides • Assay plate: ProxiPlate-384 Plus, White 384-shallow well Microplate • Sealing tape: Topseal A plus • T175 culture flask
Cell cultures were maintained between 0.2 and 2.0×10^6 cells/mL. The cells were harvested by collection in 50 mL conical tubes. The cells were then pelleted at 500 g for 5 mins before removing supernatant and resuspension in fresh pre-warmed culture medium. The cells were counted and diluted as needed.
The assay reagent was prepared by transferring the buffer solution to the substrate vial and mixing. […]
Compounds were delivered in assay-ready plates (Proxiplate) and stored at −20° C. […] The plates were then sealed and measured after 30 minutes.
The activity of a test compound was calculated as percent change in apoptosis induction as follows: […]

SMILES | Ki [1] [nM] | AC50 [2] [nM]
Cc1c2c(nn1C)C(CCN1CCOCC1)OCc1cc(n(C)n1)CSc1cc(c3ccccc3c1)OCCCc1c(C(=O)O)n(C)c3c-2c(Cl)ccc13 (stereo not drawn) | 0.241 | 2160
Cc1c2c(nn1C)COCc1cc(n(C)n1)CCc1cc(c3ccc(F)cc3c1)OCCCc1c(C(=O)O)n(C)c3c-2c(Cl)ccc13 [Compound 4] | 2.71 | 1980
Cc1c2c(nn1C)COCc1cc(n(C)n1)CCc1cc(c3ccc(F)cc3c1)OCCCc1c(C(=O)O)n(C)c3c-2c(Cl)ccc13 [Compound 3] | 0.02 | 13.5
